Results from ChEMBL document CHEMBL1133765, “QSAR model for drug human oral bioavailability” (J Med Chem, 2000).

Test: physchem

For `COc1cc(Cc2cnc(N)nc2N)cc(OC)c1OC` [TRIMETHOPRIM], the pKa was 7.2.
